The test concerns the target Sodium- and chloride-dependent GABA transporter 1 (Mus musculus, UniProt P31648). Put plainly: Binding affinity to mouse GAT1 stably transfected in HEK293 cells by NO-711 binding assay. The class given is cell-based.

The compound `COc1ccc(C(OCCN2CCC[C@H](C(=O)O)C2)(c2ccc(OC)cc2)c2ccc(OC)cc2)cc1` had an inhibition constant (Ki) of 27.5 µM.

The values are drawn from ChEMBL document CHEMBL2412952, “2-Substituted 4-hydroxybutanamides as potential inhibitors of γ-aminobutyric acid transporters mGAT1-mGAT4: synthesis and biological evaluation” (Bioorg Med Chem, 2013).
